Test results: patent publication US20120009203A1, “Depletion of cancer stem cells” (priority 2010, published 2012)

Tests used:
[1] = test system: hESCs, iPSCs, DPSCs and MSCs; experiment: 51Cr release NK cell cytotoxicity assay against stem cells; format: cell-based, human; details: IL-2 1000 units/ml, anti-CD16 mAb 3 μg/ml, 12-24 hours; 4 hour 51Cr release; p<0.05
Protocol: (§1) FIG. 4. […] NK cells (1×10^6/ml) were left untreated or treated with IL-2 (1000 units/ml), or anti-CD16 mAb (3 μg/ml) or a combination of IL-2 (1000 units/ml) and anti-CD16 mAb (3 μg/ml) for 12-24 hours before they were added to ^51Cr labeled hESCs. NK cell cytotoxicity was determined using a standard 4 hour ^51Cr release assay, and the lytic units 30/10^6 were determined using inverse number of NK cells required to lyse 30% of the hESCs ×100 (A). NK cells were treated as described in FIG. 4A and each NK sample at (1×10^5/ml) were either cultured in the absence of hESCs or added to hESCs at an NK to hESC ratio of 1:1. After an overnight culture, supernatants were removed from the cultures and the levels of IFN-γ (B), and bFGF (C) secretion were determined using specific ELISAs. One of three representative experiments is shown in this figure.
(§2) FIG. 5. […] NK cells (1×10^6/ml) were left untreated or treated with IL-2 (1000 units/ml), or anti-CD16 mAb (3 μg/ml) or a combination of IL-2 (1000 units/ml) and anti-CD16 mAb (3 μg/ml) for 12-24 hours before they were added to ^51Cr labeled iPS cells and NK cell cytotoxicity was determined using a standard 4 hour ^51Cr release assay, and the lytic units 30/10^6 were determined using inverse number of NK cells required to lyse 30% of the iPS cells ×100 (A). […]

[2] = test system: NK cells co-cultured with stem cells; experiment: IFN-γ ELISA in co-cultures of NK cells with stem cells; format: cell-based, human; details: NK to stem cell ratio 1:1, overnight; IL-2 1000 units/ml, anti-CD16 mAb 3 μg/ml
Protocol: as §1, §2

In the case of “IL-2: Recombinant IL-2 obtained from NIH-BRB, used at 1000 units/ml”, the “effect of treatment of NK cells on cytotoxicity against stem cells” value [1] was “increased cytotoxicity against all stem cell populations significantly” and the “IFN-γ secretion by treated NK cells co-cultured with stem cells” value [2] was “secreted significant levels of IFN-γ”.
